Antibody variant affinities, Ab-95 light chain, assay 2

Data: MIT Lincoln Laboratory AlphaSeq set, Engelhart et al. 2022, doi:10.1038/s41597-022-01779-4, as distributed in FLAb.

Binding partner: SARS-CoV-2 spike HR2 peptide, sequence PDVDLGDISGINAS.

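The parent was found by panning a naive human phage display library on the peptide. Variants in AAYL52 differ from the parent at up to three CDR positions; double and triple changes were sampled at random. The scFvs were displayed on barcoded MATa yeast, the peptide on MATalpha yeast. Pairs that bind mate more often; barcode pairs of the diploids are counted by sequencing. Read counts were normalised to the haploid input and turned into Kd by a linear fit to BCL2-family pairs of known affinity, for each replicate. Each pool was mated in three replicate cultures.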

Each scFv is VH, three GGGGS repeats, VL, as in the parent Ab-95, and differs from it in the CDRs of the light chain only.
VH: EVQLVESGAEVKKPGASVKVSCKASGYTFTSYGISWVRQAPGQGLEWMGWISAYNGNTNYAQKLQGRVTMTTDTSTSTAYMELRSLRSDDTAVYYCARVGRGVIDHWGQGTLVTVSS
VL: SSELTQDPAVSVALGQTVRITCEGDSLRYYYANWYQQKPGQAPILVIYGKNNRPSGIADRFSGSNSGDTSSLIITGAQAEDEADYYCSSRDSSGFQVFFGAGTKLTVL

Changes read parent residue, position, new residue, counted from the first residue of the VL shown. Numbers give log10(Kd / nM), so 0 is 1 nM and 3 is 1 µM. Smaller is tighter. Where no diploid with the target was found in that replicate, the entry reads "nd": below detection, most likely a poor binder, though not proof of it.

| changes | log10 Kd, replicates | control signals |
|---|---|---|
| P54D/G94E/F95S | nd / nd / nd | 2 of 9 (5.02) |
| R28L/N51H/V97D | nd / nd / nd | 1 of 9 (3.87) |
| D25A/S55E/R90P | 3.50 / 4.26 / 4.28 | 4 of 9 (3.51) |
| P54V/R90V/F98W | nd / nd / nd | 1 of 9 (2.91) |
| Y31H/N51P/G94H | 3.54 / nd / nd | 4 of 9 (3.89) |
| K50R/D91G/V97T | 3.62 / 3.41 / 2.56 | 3 of 9 (3.93) |
| N52Q/P54E/R90S | 4.44 / 4.00 / nd | 3 of 9 (4.30) |
| G24H/D25S/P54K | 4.19 / nd / 2.38 | 3 of 9 (3.92) |
| S88L/S93Q/Q96I | 4.57 / nd / 3.11 | 2 of 9 (4.16) |
| Y30T/R90S/S92F | 2.44 / 2.00 / 1.86 | 6 of 9 (3.98) |
| S55M/F95W | 3.30 / 3.55 / 1.74 | 1 of 9 (3.82) |
| E23V/S93Y | 2.51 / 2.21 / 1.85 | 0 of 9 |
| Y30G/N52M/F98W | 1.06 / 0.93 / 0.68 | 1 of 9 (4.48) |
| G24C/S92R/F95H | nd / nd / nd | 2 of 9 (3.88) |
| G24P/N33V/S55T | 5.50 / 5.25 / nd | 4 of 9 (4.02) |
| K50W/S88A/D91G | nd / nd / nd | 3 of 9 (3.35) |
| N33Y/G49S/S92Y | nd / nd / nd | 1 of 9 (1.99) |
| E23Q/Y31K/S89R | 2.82 / 2.70 / 2.92 | 5 of 9 (3.97) |
| N33D/N52E | 3.57 / 4.81 / 4.42 | 1 of 9 (3.53) |
| N52R/S92T/F98I | 3.98 / nd / nd | 2 of 9 (3.57) |
| Y31H/S88L/S92P | 2.57 / 2.88 / 2.83 | 3 of 9 (3.01) |
| Y30M/R53N/V97F | 3.04 / nd / 3.58 | 0 of 9 |
| L27N/Y31N/F98D | 2.27 / 2.52 / 2.26 | 0 of 9 |
| Y31R/K50P/G94I | 2.39 / 2.03 / 1.59 | 2 of 9 (3.52) |
| Y31D/N33F/G49L | nd / nd / nd | 2 of 9 (3.25) |
| P54Q/S88F/F95T | 4.28 / 4.13 / nd | 2 of 9 (3.46) |
| L27H/D91A/S92N | nd / nd / nd | 3 of 9 (4.62) |
| G24I/N33V/P54N | 2.78 / 3.66 / 2.65 | 4 of 9 (4.21) |
| Y31N/G94A/F98Q | nd / nd / nd | 2 of 9 (3.77) |
| N52D/S88T/G94Y | nd / nd / nd | 1 of 9 (4.42) |
| Y31Q/G49Q/P54N | 3.70 / 3.39 / nd | 2 of 9 (3.24) |
| S26Q/L27Y/N51R | 5.07 / 4.85 / nd | 4 of 9 (4.17) |
| Y30P/D91W/V97G | 2.53 / 2.77 / 2.55 | 4 of 9 (3.49) |
| K50M/S88V/G94H | nd / nd / nd | 3 of 9 (3.64) |
| R28N/Y30E/G49C | 4.21 / 3.76 / nd | 3 of 9 (3.03) |
| L27F/R28L/A32I | 3.05 / nd / nd | 1 of 9 (3.15) |
| G24P/Y30C/G94K | nd / nd / nd | 2 of 9 (2.62) |
| L27N/S88T/F98C | 2.25 / 1.95 / 2.16 | 3 of 9 (3.60) |
| Y29D/S92F/S93A | 2.32 / 2.62 / 2.15 | 1 of 9 (3.14) |
| R28C/N33Q/N52R | nd / nd / nd | 1 of 9 (3.80) |
| S26N/Y30R/F95K | 2.53 / 2.56 / 2.25 | 4 of 9 (4.30) |
| D25C/S26C/S55N | 3.76 / 2.91 / nd | 4 of 9 (3.74) |
| N51D/N52T/G94T | 2.93 / 2.89 / 2.78 | 1 of 9 (4.25) |
| S92Q/Q96Y/F98G | 1.36 / 1.28 / 0.85 | 1 of 9 (3.52) |
| S55T/S88C/S92R | 2.67 / 2.27 / 1.99 | 1 of 9 (3.81) |
| Y29K/R90C/G94V | nd / 2.59 / nd | 1 of 9 (3.05) |
| G24K/S55F | 4.31 / 4.42 / nd | 2 of 9 (3.66) |
| R53K/S88G/V97K | 2.60 / 4.92 / nd | 2 of 9 (2.93) |
| G24A/R28I/G49R | 4.53 / nd / 3.88 | 1 of 9 (3.22) |
| N52Q/S89A/S93L | 2.42 / 2.50 / 2.20 | 1 of 9 (4.16) |
| D25T/S26E/D91T | 3.61 / 4.70 / 4.53 | 8 of 9 (4.17) |

Picked from the list: the 6 lowest averages where every replicate gave a value.

changes	log10 Kd, replicates	control signals
Y30G/N52M/F98W	1.06 / 0.93 / 0.68	1 of 9 (4.48)
S92Q/Q96Y/F98G	1.36 / 1.28 / 0.85	1 of 9 (3.52)
Y31R/K50P/G94I	2.39 / 2.03 / 1.59	2 of 9 (3.52)
Y30T/R90S/S92F	2.44 / 2.00 / 1.86	6 of 9 (3.98)
L27N/S88T/F98C	2.25 / 1.95 / 2.16	3 of 9 (3.60)
E23V/S93Y	2.51 / 2.21 / 1.85	0 of 9

Nonspecific signal, from three strains lacking the peptide, appeared in 28% of pairings of library AAYL52, centred on 3.91 (5% of these signals below 2.90); values are not corrected for it. The control count says in how many pairings with the empty strains this scFv gave a signal, with their mean in brackets. For reference, the parent read 2.31 as the reference entry and 2.25 as a member of this library.